Consider 27 compounds from PubChem BioAssay AID651636 (Sanford-Burnham Center for Chemical Genomics, 2012).

The chains behind the UniProt entries cited, without tags or fusion partners.
UniProt P32249, whole entry: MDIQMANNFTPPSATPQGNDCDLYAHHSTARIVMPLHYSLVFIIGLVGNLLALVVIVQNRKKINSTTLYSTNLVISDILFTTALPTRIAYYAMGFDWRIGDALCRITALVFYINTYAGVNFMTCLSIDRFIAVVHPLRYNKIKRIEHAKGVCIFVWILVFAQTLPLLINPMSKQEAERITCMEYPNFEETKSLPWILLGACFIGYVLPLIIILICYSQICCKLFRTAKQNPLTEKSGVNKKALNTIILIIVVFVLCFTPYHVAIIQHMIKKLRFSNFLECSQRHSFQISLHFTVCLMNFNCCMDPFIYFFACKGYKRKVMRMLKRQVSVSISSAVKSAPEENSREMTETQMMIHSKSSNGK

The entries are a selection whose mix differs from that of the whole data set. Some results for these compounds are left out of this collection, so the calls shown say nothing about other tests. Calls of active or inactive are those of the source. Rule as the data show it: active = inhibition above about 38%; inactive = the rest.

This experiment has as its target G-protein coupled receptor 183 (Homo sapiens) (UniProt P32249). The experiment in a line: blockers of oxysterol-driven EBI2 arrestin signaling – cell-based, luminescence, 7a,25-OHC stimulation, uHTS, primary screen (AID 651636).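 Also: enzyme fragment complementation signal reports receptor beta-arrestin coupling in cells; 0% = agonist plus DMSO wells and 100% = wells without agonist.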 As to conditions: EBI2 beta-arrestin recruitment, 7a,25-OHC stimulated, at 5 µM, active compounds read high. For orientation: Activated receptors often draw arrestin, which recruitment assays turn into a signal.
Take `O=C(NCC1(N2CCCCC2)CCCCC1)c1cc([N+](=O)[O-])ccc1Cl`: the inhibition is inactive: 10.4%. Next, `CN1[C@@H]2CC[C@H]1CC(OC(=O)C(O)(c1ccccc1)c1ccccc1)C2` (some centres not stated): inactive: 0.735%; `CCCCC(CC)C(=O)N1CCN(C/C=C/c2ccccc2)CC1` (configuration not stated): active: 54.8%; `CCN(CC)CC(C)C(C)OC(=O)C(O)(c1ccccc1)c1ccccc1` (configuration not stated): inactive: -6.48%. Turning to `COc1cc(SC)ccc1C(=O)NCC1(N(C)C)CCCCC1`, the inhibition is inactive: -13.3%.

For `CC(C)N1C(=O)CC2(CCN(CCOC(=O)C(O)(c3ccccc3)c3ccccc3)CC2)C1=O`, the inhibition is inactive: -1.66%. Next, `Cc1ccc(C(=O)NCC2(N3CCCCC3)CCCCC2)cc1`: inactive: -2.77%. On to `Cc1ccccc1C(=O)NCC1(N2CCCCC2)CCCCC1`, for which the inhibition was inactive: -8.42%. Next, `CN(C)c1ccc(C(=O)NCC2(N(C)C)CCCCC2)cc1`: inactive: 11.5%. In the case of `CN(C)C1CCCC1OC(=O)C(O)(c1ccccc1)c1ccccc1` (configuration not stated) it was inactive: 1.53%; in that of `C=CCN1CCN(CCOC(=O)C(O)(c2ccccc2)c2ccccc2)CC1`, inactive: -4.09%.

On to `O=C(NCC1(N2CCCCC2)CCCCC1)c1cc(F)c(F)cc1Cl`, for which the inhibition was inactive: -11.1%. In the case of `COc1ccc(C(=O)NCC2(N(C)C)CCCCC2)cc1` it was inactive: 2.69%; in that of `CCN1CCCC(OC(=O)C2(O)c3ccccc3C=Cc3ccccc32)C1` (configuration not stated), inactive: -4.09%. As to `Cc1cc(C(=O)NCC2(N3CCCCC3)CCCCC2)ccc1[N+](=O)[O-]`, the inhibition was inactive: 2.75%. In the case of `O=C(NCC1(N2CCCCC2)CCCCC1)c1cccc(Br)c1`, the inhibition is inactive: 5.48%. In the case of `CN(C)C1(CNC(=O)c2ccc(Br)cc2)CCCCC1` it was inactive: -19.9%; in that of `COc1cc(C(=O)NCC2(N(C)C)CCCCC2)c([N+](=O)[O-])cc1OC`, inactive: -0.463%. Turning to `COc1cccc(C(=O)NCC2(N3CCCCC3)CCCCC2)c1`, the inhibition was inactive: -0.288%.

As for `COc1ccc(Cl)cc1C(=O)NCC1(N(C)C)CCCCC1`, the inhibition was inactive: 0.179%. Next, `O=C(NCC1(N2CCCCC2)CCCCC1)c1cccc(Cl)c1`: inactive: -4.96%. Next, `O=C(OC1CN2CCC1CC2)C(CO)(c1ccccc1)c1ccccc1` (configuration not stated): inactive: 3.52%. Next, `C=C(C)C#CC(O)(C(=O)OC1CCN(C)CC1)c1ccccc1` (configuration not stated): inactive: -5.16%; `COc1ccc(Br)c(C(=O)NCC2(N3CCCCC3)CCCCC2)c1`: inactive: 15.2%; `CC(C)Oc1ccc(C(=O)NCC2(N(C)C)CCCCC2)cc1`: inactive: 3.05%. As to `O=C(OCCN1CCCC1)C(O)(c1ccccc1)c1ccccc1`, the inhibition is inactive: -11.7%. Next, `CN(C)c1cccc(C(=O)NCC2(N(C)C)CCCCC2)c1`: inactive: -8.07%.

For orientation: inhibition means the relative decrease from the control value, in per cent.
